Assay results published in publication PMC3005437.

Key:
[1] = biological target: Josephin domain of ataxin-3, mutant Jos_I77KQ78K (human) (UniProt P54252); experiment: NMR 1H-15N HSQC peak intensities against time
[2] = biological target: Josephin domain of ataxin-3, mutant Jos_W87K (human) (UniProt P54252); experiment: NMR 1H-15N HSQC peak intensities against time

| Substance | half-life time of aggregation [1] | half-life time of aggregation [2] |
| --- | --- | --- |
| Josephin domain of ataxin-3, mutant Jos_I77KQ78K (from UniProt P54252 1-182) (domain or fragment) | 154 h | – |
| Josephin domain of ataxin-3, mutant Jos_W87K (from UniProt P54252 1-182) (domain or fragment) | – | 112 h |
